Measured properties of organic chemicals

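The numbers are reported measurements, compiled and curated for the OPERA QSAR suite. A listed value is a point estimate from one report or more. Conditions of the individual experiments are not part of the data. Where a salt, mixture or single isomer is drawn, the source does not say that exactly this form was tested. Some upstream entries may be estimates or bounds without being marked so.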

The melting point is given in degrees Celsius. The boiling point refers to atmospheric pressure (760 mmHg), by the definition of the set. logP is the log10 of the octanol-water partition coefficient; higher is more lipophilic. Solubility in water is on a log10 molar scale (set defined at 25 °C). Vapor pressure is log10 of mmHg; the set covers 15 to 30 °C, mostly 20 to 25 °C. Henry's law constant (air-water partitioning) is log10 of atm·m3/mol, nominally at 25 °C. The unbound fraction in human plasma runs from 0 (all bound) to 1 (all free). Intrinsic clearance (human, µL/min per 10^6 hepatocytes): higher is faster turnover, and 0 stands for none detected. A value with < or ≤ is an upper limit.

N#CCCN(CCOC(=O)c1ccccc1)c1ccc(N=Nc2ccc([N+](=O)[O-])cc2)cc1 [C.I. Disperse Orange 73] is reported with melting point 150.8 °C and log Kow 4.8 and water solubility -7.17 (log10 mol/L) and vapor pressure -5.862 (log10 mmHg). CC(C)(C)C(=O)OC(=O)C(C)(C)C [Trimethylacetic anhydride] has melting point 2.13 °C and vapor pressure -0.357 (log10 mmHg). Listed for C=COCCOC [1-Methoxy-2-vinyloxyethane]: melting point -83 °C and water solubility -0.065 (log10 mol/L) and vapor pressure 1.255 (log10 mmHg). For CC(C)C(=O)OCCOc1ccccc1 [2-Phenoxyethyl isobutyrate] the data give log Kow 3.2 and water solubility -3.026 (log10 mol/L) and vapor pressure -2.238 (log10 mmHg).

The entry for CC(C)CCCC(C)(C)O [2,6-Dimethyl-2-heptanol] lists water solubility -2.287 (log10 mol/L) and vapor pressure -0.701 (log10 mmHg). For C=CCCCCCCCCC(=O)NCC(=O)O [Undecylenoyl glycine] the data give melting point 103 °C and log Kow 2.2 and water solubility -3.474 (log10 mol/L) and vapor pressure -2.002 (log10 mmHg). COC(=O)c1ccc(C#N)cc1[N+](=O)[O-] [Methyl 4-cyano-2-nitrobenzoate] has melting point 90.74 °C and log Kow 2.26 and water solubility -3.076 (log10 mol/L) and vapor pressure -5.084 (log10 mmHg). Listed for CCCCCCCCCCCC(=O)OCCCCCCCCCCC(C)C [11-Methyldodecyl laurate]: melting point -12 °C and water solubility -7.076 (log10 mol/L).

The entry for CO[Si](CCCS[Si](C)(C)C(C)(C)C)(OC)OC lists bp 295.9 °C and log Kow 6.27 and vapor pressure -2.803 (log10 mmHg). For Cc1cc(C2CCCCC2)n(O)c(=O)c1.NCCO [Ciclopirox olamine] the data give log Kow 0.52 and vapor pressure -5.979 (log10 mmHg). The entry for CC(=O)S[C@H](C(=O)N[C@H]1Cc2ccccc2[C@H]2CCC[C@@H](C(=O)O)N2C1=O)C(C)C [Ilepatril] lists fraction unbound 0.319 and hepatic Clint 5.55 µL/min/10^6 cells. CCCCCCCCCCCCN1CCCC1=O [1-dodecyl-2-pyrrolidinone] has fraction unbound 0.0125 and hepatic Clint 19.1 µL/min/10^6 cells.

Nc1ncccc1O [2-Amino-3-hydroxypyridine] has log Kow -0.25 and vapor pressure -4.28 (log10 mmHg). The entry for C=C[C@H]1CC[C@H]([C@H]2CC[C@H](c3ccc(C)cc3)CC2)CC1 [(Trans(Trans))-4'-vinyl-4-(4-methylphenyl)bicyclohexyl] lists melting point 66 °C and log Kow 4.7 and vapor pressure -5.835 (log10 mmHg). Listed for CC[C@H]1OC(=O)C[C@@H](O)[C@H](C)[C@@H](O[C@@H]2O[C@H](C)[C@@H](O[C@H]3C[C@@](C)(O)[C@@H](O)[C@H](C)O3)[C@H](N(C)C)[C@H]2O)[C@@H](CC=O)C[C@@H](C)C(=O)C=CC(C)=C[C@@H]1CO[C@@H]1O[C@H](C)[C@@H](O)[C@@H](OC)[C@H]1OC [Tylosin]: melting point 130 °C and water solubility -3.76 (log10 mol/L). Listed for COc1cc(OC)nc(Sc2cccc3c2C(=O)OC3C)n1 (centres undefined) [Pyriftalid]: melting point 163 °C and water solubility -5.25 (log10 mol/L) and vapor pressure -9.783 (log10 mmHg).

Listed for CC(C)(C)OC(=O)N[C@@H](Cc1ccccc1)[C@@H](O)CN(Cc1ccc(-c2ccccn2)cc1)NC(=O)OC(C)(C)C: log Kow 3.9 and water solubility -6.058 (log10 mol/L) and vapor pressure -11.78 (log10 mmHg). Listed for C=CC(C)(CCC=C(C)C)OC=O (centres undefined) [Linalyl formate]: log Kow 3.71 and vapor pressure -0.715 (log10 mmHg). CCCCCCCCCCCCCC(=O)N(C)CC(=O)O [Glycine, N-methyl-N-(1-oxotetradecyl)-] is reported with melting point 56.2 °C and log Kow 1.3 and water solubility -2.522 (log10 mol/L). The entry for CC(C)=CCCC1=CCC(C)(C=O)CC1 (centres undefined) lists log Kow 4.69 and water solubility -4.273 (log10 mol/L).

COC(OC)C(C)(C)CC=C(C)C [6,6-Dimethoxy-2,5,5-trimethylhex-2-ene] is reported with water solubility -3.34 (log10 mol/L) and vapor pressure -0.777 (log10 mmHg). Listed for O=S(=O)(Oc1ccc(Cl)cc1)c1ccccc1 [Fenson]: melting point 62 °C and water solubility -4.21 (log10 mol/L). Listed for CCCCCC(CCC)COC(=O)OCC(CCC)CCCCC (centres undefined) [Bis(2-propylheptyl) carbonate]: water solubility -7.234 (log10 mol/L) and vapor pressure -5.569 (log10 mmHg). Listed for CCCCCCCCON1C(C)(C)CCC(OC(=O)CCCCCCCCC(=O)OC2CCC(C)(C)N(OCCCCCCCC)C2(C)C)C1(C)C (centres undefined): melting point -50.5 °C and water solubility -5.089 (log10 mol/L).

Listed for C=CC(=O)NCCO [(2-Hydroxyethyl)acrylamide]: melting point -27 °C and log Kow -0.73 and vapor pressure -3.803 (log10 mmHg). CC(C)CNCC(C)C [2-Methyl-N-(2-methylpropyl)-1-propanamine] is reported with log Kow 2.63 and log Henry constant -9.888 (log10 atm·m3/mol). Cc1nn(C)c(O)c1C(O)c1ccc(C(F)(F)F)cc1S(C)(=O)=O (centres undefined) [Pyrasulfotole] is reported with melting point 201 °C and log Kow -1.471 and water solubility -1.938 (log10 mol/L) and vapor pressure -8.493 (log10 mmHg). Fc1ccc(C2=CCC(C3CCC4(CC3)OCCO4)CC2)cc1F (centres undefined) has melting point 101.6 °C and bp 399.5 °C and water solubility -7.144 (log10 mol/L) and vapor pressure -7.268 (log10 mmHg).

For Cc1cc(O[C@@H]2O[C@H](CO)[C@@H](O)[C@H](O)[C@H]2O)cc2c1O[C@](C)(CCC[C@H](C)CCC[C@H](C)CCCC(C)C)CC2 the data give melting point 60.7 °C and log Kow 9.4 and water solubility -6.673 (log10 mol/L) and vapor pressure ≤ -16 (log10 mmHg). Listed for CC(C)CN(C=O)CC(C)C [N,N-Bis(2-methylpropyl)formamide]: log Kow 1.9 and vapor pressure -1.236 (log10 mmHg). Listed for COC(=O)C(C)(C)N=NC(C)(C)C(=O)OC: melting point 27.4 °C and log Kow 2.47 and water solubility -1.851 (log10 mol/L).

Extract of 5 entries:

The entry for C=CC(=O)NCCO [(2-Hydroxyethyl)acrylamide] lists melting point -27 °C and log Kow -0.73 and vapor pressure -3.803 (log10 mmHg).
The entry for COc1cc(OC)nc(Sc2cccc3c2C(=O)OC3C)n1 (centres undefined) [Pyriftalid] lists melting point 163 °C and water solubility -5.25 (log10 mol/L) and vapor pressure -9.783 (log10 mmHg).
The entry for Cc1nn(C)c(O)c1C(O)c1ccc(C(F)(F)F)cc1S(C)(=O)=O (centres undefined) [Pyrasulfotole] lists melting point 201 °C and log Kow -1.471 and water solubility -1.938 (log10 mol/L) and vapor pressure -8.493 (log10 mmHg).
The entry for CCCCCCCCCCCCN1CCCC1=O [1-dodecyl-2-pyrrolidinone] lists fraction unbound 0.0125 and hepatic Clint 19.1 µL/min/10^6 cells.
The entry for COC(=O)c1ccc(C#N)cc1[N+](=O)[O-] [Methyl 4-cyano-2-nitrobenzoate] lists melting point 90.74 °C and log Kow 2.26 and water solubility -3.076 (log10 mol/L) and vapor pressure -5.084 (log10 mmHg).

Data: OPERA 2.9 data sets, kmansouri/OPERA on GitHub.